Tests used:
[1] = glycine ~18-22 grams infused over 30-50 minutes; cited from earlier work
[2] = human, in vivo
[3] = human, in vivo; remark: listed apart in the source
From the text: Hyperammonemia is seen in several abnormal conditions, e.g. inborn errors of metabolism that affect the urea cycle, small bowel syndrome, and others.

Question: What does the source list for glycine?
Answer: healthy volunteers with a more marked increase in plasma ammonia [1]: 15%; healthy volunteers with no increase in plasma ammonia [1]: 15%; healthy volunteers with only a slight increase in plasma ammonia [1]: 70%; plasma ammonia concentrations in some individuals with marked increase [1]: 100 to 120 µM; free glycine peak in brain magnetic resonance spectrum [2]: clearly shows a peak centered at 3.5 ppm; ammonia concentration [3]: 136 µM; plasma ammonia [3]: 118 µM; plasma ammonia concentration [3]: 118 to 136 µM; plasma glycine [3]: 1326 µM; plasma glycine concentration [3]: 2615 µM; time of plasma ammonia peak after completion of glycine ingestion [3]: about 2 hours
